The chains behind the UniProt entries cited, without tags or fusion partners.
UniProt Q9NWZ3, whole entry: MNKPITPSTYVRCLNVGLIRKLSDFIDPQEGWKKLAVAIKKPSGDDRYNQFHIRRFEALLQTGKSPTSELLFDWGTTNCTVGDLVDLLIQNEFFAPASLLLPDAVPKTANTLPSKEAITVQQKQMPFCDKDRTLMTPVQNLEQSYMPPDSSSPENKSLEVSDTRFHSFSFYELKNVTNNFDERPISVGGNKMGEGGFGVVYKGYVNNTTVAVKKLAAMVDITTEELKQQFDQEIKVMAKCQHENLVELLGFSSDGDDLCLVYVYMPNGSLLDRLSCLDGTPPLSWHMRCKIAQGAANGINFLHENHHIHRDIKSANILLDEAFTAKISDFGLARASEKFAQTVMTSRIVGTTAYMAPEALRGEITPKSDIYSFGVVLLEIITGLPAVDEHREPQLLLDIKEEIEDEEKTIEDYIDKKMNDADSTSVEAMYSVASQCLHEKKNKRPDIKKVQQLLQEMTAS

According to EP4656640A1, “IRAK4 DEGRADER AND USE THEREOF” (Shanghai Qilu Pharmaceutical Research and Development …, priority 2023, dated 2024):

How the values were obtained:
[1] = biological target: T1, IRAK4 (Homo sapiens, UniProt Q9NWZ3); experiment: Degradation of IRAK4 in SU-DHL-2 cells (flow cytometry); type: cell-based; design: The degradation level of IRAK4 protein in SU-DHL-2 cell line by the compounds was detected by flow cytometry; endogenous in cells; host or cells: SU-DHL-2; OCI-LY3
[2] = biological target: T1, IRAK4; experiment: Degradation of IRAK4 in monocytes of human PBMCs (flow cytometry); type: cell-based; design: endogenous in cells; conditions: read-out: DC50 in PBMC, 24 hours incubation
[3] = biological target: T1, IRAK4; type: cell-based; design: endogenous in cells; host or cells: OCI-LY3; conditions: read-out: OCI-LY3 DC50; OCI-LY3 cells
[4] = Example 22 at 50 mpk
[5] = read-out: SU-DHL-2 DC50, 24 hours incubation

CC(OCC#Cc1cccc2c1n(C)c(=O)n2C1CCC(=O)NC1=O)C(=O)N1CCC2(CC1)CC(n1cc(NC(=O)c3cnn4ccc(N5C[C@H]6C[C@@H]5CO6)nc34)c(C(F)F)n1)C2 (stereo partly shown) [Example 11]
DC50 [1, 5]: 3 nM

Cn1c(=O)n(C2CCC(=O)NC2=O)c2cccc(C#CCOC3CCN(C(=O)N4CCC5(CC4)CC(n4cc(NC(=O)c6cnn7ccc(N8C[C@H]9C[C@@H]8CO9)nc67)c(C(F)F)n4)C5)CC3)c21 (stereo partly shown) [Example 13]
DC50 [1, 5]: 5.7 nM
DC50 [2]: 2.22 nM
DC50 [3]: 5 nM

Cn1c(=O)n(C2CCC(=O)NC2=O)c2cccc(C#CCOC3CN(C(=O)N4CCC5(CC4)CC(n4cc(NC(=O)c6cnn7ccc(N8C[C@H]9C[C@@H]8CO9)nc67)c(C(F)F)n4)C5)C3)c21 (stereo partly shown) [Example 14]
DC50 [1, 5]: 4.6 nM
DC50 [3]: 4.4 nM

Cn1c(=O)n(C2CCC(=O)NC2=O)c2cccc(C#CCCOC(=O)N3CCC4(CC3)CC(n3cc(NC(=O)c5cnn6ccc(N7C[C@H]8C[C@@H]7CO8)nc56)c(C(F)F)n3)C4)c21 (stereo partly shown) [Example 16]
DC50 [1, 5]: 5 nM
DC50 [3]: 5 nM

Cn1c(=O)n(C2CCC(=O)NC2=O)c2cccc(C#CCO[C@@H]3CCN(C(=O)N4CCC5(CC4)CC(n4cc(NC(=O)c6cnn7ccc(N8C[C@H]9C[C@@H]8CO9)nc67)c(C(F)F)n4)C5)C3)c21 (stereo partly shown) [Example 18]
DC50 [1, 5]: 6 nM

Cn1c(=O)n(C2CCC(=O)NC2=O)c2cccc(C#CCO[C@H]3CCN(C(=O)N4CCC5(CC4)CC(n4cc(NC(=O)c6cnn7ccc(N8C[C@H]9C[C@@H]8CO9)nc67)c(C(F)F)n4)C5)C3)c21 (stereo partly shown) [Example 19]
DC50 [1, 5]: 7 nM
DC50 [3]: 6 nM

Cn1c(=O)n(C2CCC(=O)NC2=O)c2cccc(C#CCO[C@H]3C[C@@H](C(=O)N4CCC5(CC4)CC(n4cc(NC(=O)c6cnn7ccc(N8C[C@H]9C[C@@H]8CO9)nc67)c(C(F)F)n4)C5)C3)c21 (stereo partly shown) [Example 20]
DC50 [1, 5]: 4 nM
DC50 [3]: 4 nM

Cn1c(=O)n(C2CCC(=O)NC2=O)c2cccc(C#CCOC(=O)N3CC(N4CCC5(CC4)CC(n4cc(NC(=O)c6cnn7ccc(N8C[C@H]9C[C@@H]8CO9)nc67)c(C(F)F)n4)C5)C3)c21 (stereo partly shown) [Example 21]
DC50 [1, 5]: 3 nM

Cn1c(=O)n(C2CCC(=O)NC2=O)c2cccc(C#CCCN3CCC4(CC3)CC(n3cc(NC(=O)c5cnn6ccc(N7C[C@H]8C[C@@H]7CO8)nc56)c(C(F)F)n3)C4)c21 (stereo partly shown) [Example 22]
concentration levels in plasma and spleen compared with KT-474 at 150 mpk [4]: same concentration levels

Cn1c(=O)n(C2CCC(=O)NC2=O)c2cccc(C#CCCCC(=O)N3CCC4(CC3)CC(n3cc(NC(=O)c5cnn6ccc(N7C[C@H]8C[C@@H]7CO8)nc56)c(C(F)F)n3)C4)c21 (stereo partly shown) [Example 25]
DC50 ([1]; 24 hours incubation, read-out: SU-DHL-2 DC50): 6 nM

Cn1c(=O)n(C2CCC(=O)NC2=O)c2cccc(C#CCC3CN(C(=O)N4CCC5(CC4)CC(n4cc(NC(=O)c6cnn7ccc(N8C[C@H]9C[C@@H]8CO9)nc67)c(C(F)F)n4)C5)C3)c21 (stereo partly shown) [Example 26]
DC50 [1, 5]: 2.9 nM
DC50 [3]: 3.5 nM

Cn1c(=O)n(C2CCC(=O)NC2=O)c2cccc(C#CCC3CCN(C(=O)N4CCC5(CC4)CC(n4cc(NC(=O)c6cnn7ccc(N8C[C@H]9C[C@@H]8CO9)nc67)c(C(F)F)n4)C5)CC3)c21 (stereo partly shown) [Example 27]
DC50 [1, 5]: 22 nM
DC50 [3]: 32 nM

Cn1c(=O)n(C2CCC(=O)NC2=O)c2cccc(C#CCO[C@H]3C[C@H](C(=O)N4CCC5(CC4)CC(n4cc(NC(=O)c6cnn7ccc(N8C[C@H]9C[C@@H]8CO9)nc67)c(C(F)F)n4)C5)C3)c21 (stereo partly shown) [Example 36]
DC50 [1, 5]: 5.6 nM
DC50 [2]: 0.8 nM

Read-outs that look alike come from different tables or passages of the source.
